Results from ChEMBL document CHEMBL3085743, “6-(1-Benzyl-1H-pyrrol-2-yl)-2,4-dioxo-5-hexenoic acids as dual inhibitors of recombinant HIV-1 integrase and ribonuclease H, synthesized by a parallel synthesis approach” (J Med Chem, 2013).

Biological target: Human immunodeficiency virus type 1 integrase (Human immunodeficiency virus 1, UniProt Q7ZJM1)

CCOC(=O)C(=O)CC(=O)/C=C/c1cccn1Cc1ccc(C)cc1
IC50: > 111 µM

CCOC(=O)C(=O)CC(=O)/C=C/c1cccn1Cc1ccc(Cl)cc1
IC50: 42 µM

COc1ccc(Cn2cccc2/C=C/C(=O)CC(=O)C(=O)O)cc1
IC50: 4.1 µM

CCOC(=O)C(=O)CC(=O)/C=C/c1cccn1Cc1ccccc1
IC50: 15 µM

O=C(/C=C/c1cccn1Cc1ccccc1)CC(=O)C(=O)O
IC50: 0.09 µM

Cc1ccc(Cn2cccc2/C=C/C(=O)CC(=O)C(=O)O)cc1
IC50: 1.2 µM

CCOC(=O)C(=O)CC(=O)/C=C/c1cccn1Cc1ccc(OC)cc1
IC50: 110 µM
